Results as given in US20240208955A1 (RESEARCH TRIANGLE INSTITUTE, priority 2021, published 2024).

Test system: parental CHO cells
Assay: cAMP levels in parental CHO cells (counter-screen)
Format: cell-based
Conditions: concentrations up to 100 μM

Cc1ccc(-c2noc(-c3ccc(NC(=O)C4CC(=O)N(Cc5ccccc5)C4)cc3)n2)cc1 (stereo not shown) [RLX-1, 1-Benzyl-N-{4-[3-(4-methylphenyl)-1,2,4-oxadiazol-5-yl]phenyl}-5-oxopyrrolidine-3-carboxamide]
effects on promotion or inhibition of cAMP levels: no effects
